# Assay results: ChEMBL document CHEMBL3259653, “Potent and selective inhibitors of human reticulocyte 12/15-lipoxygenase as anti-stroke therapies” (J Med Chem, 2014)
# Target: T1, Polyunsaturated fatty acid lipoxygenase ALOX15 (Homo sapiens) (UniProt P16050)
# T1 sequence (whole entry): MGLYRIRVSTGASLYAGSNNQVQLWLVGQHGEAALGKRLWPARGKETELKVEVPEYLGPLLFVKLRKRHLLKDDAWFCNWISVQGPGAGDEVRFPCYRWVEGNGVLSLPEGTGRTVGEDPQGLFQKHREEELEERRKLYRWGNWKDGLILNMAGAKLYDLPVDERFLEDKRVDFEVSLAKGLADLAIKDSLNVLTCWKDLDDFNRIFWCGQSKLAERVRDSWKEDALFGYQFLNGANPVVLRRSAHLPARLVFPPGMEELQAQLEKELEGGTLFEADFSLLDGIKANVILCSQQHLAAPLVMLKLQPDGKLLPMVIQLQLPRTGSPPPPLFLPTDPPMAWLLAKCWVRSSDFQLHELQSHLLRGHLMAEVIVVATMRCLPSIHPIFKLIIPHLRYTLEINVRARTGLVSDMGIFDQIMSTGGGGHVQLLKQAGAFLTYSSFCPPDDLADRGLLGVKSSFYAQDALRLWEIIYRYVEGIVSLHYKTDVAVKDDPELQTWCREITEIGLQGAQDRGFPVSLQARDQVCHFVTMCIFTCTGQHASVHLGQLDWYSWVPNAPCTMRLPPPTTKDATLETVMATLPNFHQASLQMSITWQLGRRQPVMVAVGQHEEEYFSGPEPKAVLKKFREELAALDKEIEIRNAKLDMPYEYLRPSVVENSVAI
# Assay: Inhibition of recombinant N-terminal His6-tagged human reticulocyte 12/15-lipoxygenase using arachidonic acid as substrate at 25 uM by UV-vis spectrometric analysis relative to control
# Method in brief: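 His6-tagged human 12/15-LOX, Ni-NTA purified, at 40 nM in 25 mM HEPES pH 7.5 with 0.01% Triton X-100 and 10 μM arachidonic acid, in a stirred cuvette at 22 °C. Diene formation was followed at 234 nm, and percent inhibition at 25 μM inhibitor was calculated against the DMSO control rate.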
structure (smiles),measurement,value
CN(C)c1oc(-c2cccc3ccccc23)nc1C#N,Imax,< 50%
